The results in this text go back to ChEMBL document CHEMBL5030540 (J Med Chem, 2021).

This data set is described as follows: Toxicity in C57BL/6 mouse model assessed as conditioned place aversion at 30 mg/kg, IP. The note with it: in vivo.

On to `CN(C(=O)Cc1ccc(Cl)c(Cl)c1)C1CCCCC1N1CCCC1.CS(=O)(=O)O` (stereo unspecified), for which the Activity result was “Toxic”.
